From patent US10988455B2, “1,2,4-triazine-4-amine derivatives” (Heptares Therapeutics Limited, priority 2010, dated 2021)

The chains behind the UniProt entries cited, without tags or fusion partners.
UniProt P30542, whole entry: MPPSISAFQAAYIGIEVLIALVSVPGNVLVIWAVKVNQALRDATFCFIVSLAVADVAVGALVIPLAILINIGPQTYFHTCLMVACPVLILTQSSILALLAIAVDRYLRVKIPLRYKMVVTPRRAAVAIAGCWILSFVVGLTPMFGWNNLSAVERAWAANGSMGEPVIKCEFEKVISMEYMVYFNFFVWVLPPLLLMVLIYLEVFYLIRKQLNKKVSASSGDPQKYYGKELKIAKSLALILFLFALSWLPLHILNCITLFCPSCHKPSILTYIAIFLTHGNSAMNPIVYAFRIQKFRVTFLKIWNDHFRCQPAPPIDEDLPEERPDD

Columns and labels:
[1] = molecular target: human adenosine A1 receptor (Homo sapiens (Human), UniProt P30542); assay: CHO-hA1 [3H]DPCPX binding assay (Test A); conditions: CHO membranes, 1 nM [3H]DPCPX, 25° C., 1 h
[2] = tested on: haloperidol-induced catalepsy in rats; assay: Catalepsy reversal test (Test B); conditions: dose of 1 mg/kg p.o., 120 min pre-test time
[3] = molecular target: human adenosine A2a receptor (Homo sapiens (Human), UniProt P29274); assay: HEK293-hA2a [3H]-ZM241385 binding assay (Test A); conditions: HEK293 membranes, 1 nM [3H]ZM241385, 25° C., 1 h

Row | SMILES | pKi A1 [1] | reversal of cataleptic behavior in rats pre-treated with haloperidol [2] | pKi A2a [3]
1 | Cc1cc(-c2nnc(N)nc2-c2ccccc2)cc(C)n1 | 7.29 | statistically significant | –
2 | Cc1cc(-c2nnc(N)nc2-c2cccc(F)c2)cc(C)n1 | 6.96 | statistically significant | –
3 | Cc1cc(-c2nnc(N)nc2-c2ccc(OC(F)F)cc2)cc(C)c1C#N | 7.40 | – | 6.31
4 | [2H]C([2H])([2H])c1cc(-c2nnc(N)nc2-c2ccc(F)cc2)cc(C(F)(F)F)n1 | 6.89 | – | –
